Laboratory results reported in patent US11623919B2, “Heterocyclic P2X7 antagonists” (AXXAM S.P.A., priority 2017, dated 2023).

By UniProt entry, the sequences of proteins in these tests, tags left out.
UniProt Q99572, whole entry: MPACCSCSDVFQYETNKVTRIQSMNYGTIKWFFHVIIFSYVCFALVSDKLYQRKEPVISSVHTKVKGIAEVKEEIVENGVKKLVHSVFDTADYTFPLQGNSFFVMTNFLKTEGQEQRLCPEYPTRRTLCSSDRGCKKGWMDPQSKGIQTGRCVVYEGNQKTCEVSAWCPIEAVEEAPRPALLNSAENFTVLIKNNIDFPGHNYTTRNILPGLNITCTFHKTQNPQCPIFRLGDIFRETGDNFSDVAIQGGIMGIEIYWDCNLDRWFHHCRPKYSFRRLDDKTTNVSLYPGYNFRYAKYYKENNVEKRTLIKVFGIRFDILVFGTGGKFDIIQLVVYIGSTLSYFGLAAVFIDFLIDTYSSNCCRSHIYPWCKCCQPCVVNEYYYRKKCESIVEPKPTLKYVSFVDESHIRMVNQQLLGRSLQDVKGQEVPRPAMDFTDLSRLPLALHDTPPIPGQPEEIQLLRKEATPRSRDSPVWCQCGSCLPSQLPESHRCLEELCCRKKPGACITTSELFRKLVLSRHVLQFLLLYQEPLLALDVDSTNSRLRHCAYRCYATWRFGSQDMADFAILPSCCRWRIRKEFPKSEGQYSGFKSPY
UniProt Q9Z1M0, whole entry: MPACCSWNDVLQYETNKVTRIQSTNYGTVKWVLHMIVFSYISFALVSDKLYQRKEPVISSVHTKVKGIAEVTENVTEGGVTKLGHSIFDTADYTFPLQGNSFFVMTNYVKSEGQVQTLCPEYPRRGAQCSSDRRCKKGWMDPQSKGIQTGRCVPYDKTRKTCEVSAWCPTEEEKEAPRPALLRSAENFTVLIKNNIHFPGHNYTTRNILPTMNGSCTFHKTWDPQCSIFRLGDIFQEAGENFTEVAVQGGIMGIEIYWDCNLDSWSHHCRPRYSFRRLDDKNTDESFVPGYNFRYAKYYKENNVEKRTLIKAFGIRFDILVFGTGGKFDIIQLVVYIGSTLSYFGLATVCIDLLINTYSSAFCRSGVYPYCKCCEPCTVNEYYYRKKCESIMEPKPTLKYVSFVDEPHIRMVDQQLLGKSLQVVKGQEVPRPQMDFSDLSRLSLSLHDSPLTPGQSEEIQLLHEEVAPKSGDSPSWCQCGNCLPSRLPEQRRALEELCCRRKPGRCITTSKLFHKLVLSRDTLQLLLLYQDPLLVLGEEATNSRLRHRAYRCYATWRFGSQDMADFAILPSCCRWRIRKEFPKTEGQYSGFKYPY
UniProt Q64663, whole entry: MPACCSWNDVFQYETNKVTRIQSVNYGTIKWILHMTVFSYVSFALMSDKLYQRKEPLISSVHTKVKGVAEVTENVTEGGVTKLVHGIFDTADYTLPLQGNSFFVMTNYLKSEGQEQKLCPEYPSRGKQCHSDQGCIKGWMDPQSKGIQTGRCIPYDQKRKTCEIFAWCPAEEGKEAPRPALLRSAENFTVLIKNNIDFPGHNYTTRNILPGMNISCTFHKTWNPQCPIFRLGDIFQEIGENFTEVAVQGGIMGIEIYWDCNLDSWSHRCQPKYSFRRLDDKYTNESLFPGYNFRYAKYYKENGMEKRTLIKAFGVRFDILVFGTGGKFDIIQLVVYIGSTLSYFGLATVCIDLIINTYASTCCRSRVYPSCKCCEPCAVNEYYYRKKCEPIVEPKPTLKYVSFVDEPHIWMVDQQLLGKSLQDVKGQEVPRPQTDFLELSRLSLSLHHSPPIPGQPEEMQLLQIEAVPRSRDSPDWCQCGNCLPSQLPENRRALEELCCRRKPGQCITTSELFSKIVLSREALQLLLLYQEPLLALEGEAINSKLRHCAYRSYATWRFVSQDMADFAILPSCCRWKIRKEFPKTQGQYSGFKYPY

Key:
Assay in all cases: Screen Quest Fluo-8 No Wash Calcium Assay (Bz-ATP evoked Ca2+ influx, FLIPR)
P2X7 receptor [1] = target: P2X7 receptor (Homo sapiens, UniProt Q99572); conditions: read-out: hP2X7 (IC50; nM); hP2X7; HEK-293 cells stably transfected with P2X7 receptor, Bz-ATP at EC80, Fluo-8 NW; potency ranges A-D
P2X7 receptor [2] = target: P2X7 receptor (Mus musculus, UniProt Q9Z1M0); conditions: read-out: mP2X7 (IC50; nM); mP2X7; HEK-293 cells stably transfected with P2X7 receptor, Bz-ATP at EC80, Fluo-8 NW; potency ranges A-D
P2X7 receptor [3] = target: P2X7 receptor (Rattus norvegicus, UniProt Q64663); conditions: read-out: rP2X7 (IC50; nM); rP2X7; HEK-293 cells stably transfected with P2X7 receptor, Bz-ATP at EC80, Fluo-8 NW; potency ranges A-D

Measured: IC50

O=c1snc(CC2CCC(F)(F)CC2)n1Cc1ccc(F)cc1
1000 to 10000 nM: P2X7 receptor [1] | P2X7 receptor [2] | P2X7 receptor [3]
